Data reported in US20260265239A1, “CRYSTAL FORM OF 2,6-PIPERIDINEDIONE COMPOUND, AND PREPARATION METHOD THEREFOR AND USE THEREOF” (ZHANGZHOU PIEN TZE HUANG PHARMACEUTICAL CO., LTD., priority 2023, published 2026).
Structures can show the parent of a compound that is named as a salt. Where two headings read alike, the source gives them in different places.

Key:
[1] = Pharmacokinetic evaluation in beagle dogs; format: in vivo; conditions: male, dog, plasma, po, Intragastric administration, read-out: Bioavailability F
Excerpt: Male beagle dogs were selected as the experimental animals in this study. The LC/MS/MS method was employed to quantitatively determine the plasma drug concentrations at different time points after intravenous injection or intragastric administration of the test compound, aiming to evaluate the pharmacokinetic characteristics of the compound of the present disclosure in beagle dogs.
Beagle dogs (male, 7 to 10 kg, Beijing Mars Biotechnology Co., Ltd.).
A solution of the test compound was slowly injected intravenously into beagle dogs (fed) via the peripheral vein (vehicle: 5% DMSO/10% Solutol/85% H2O), or administered intragastrically to beagle dogs (fed). For intravenous administration, 0.5 mL of blood was collected from the peripheral vein at 0.083, 0.25, 0.5, 1, 2, 4, 6, 8, and 24 h after administration, placed in EDTA-2K anticoagulant tubes, and centrifuged at 3200 g for 10 minutes at 2 to 8° C. to separate the supernatant. […] Plasma drug concentrations were determined by the LC-MS/MS method, and relevant pharmacokinetic parameters were calculated using Phoenix WinNonlin 6.3 or 8.3.5 pharmacokinetic software with non-compartmental model linear-log trapezoidal method.

[2] = system: human diffuse large B-cell lymphoma TMD-8 cells; assay: BALB/c nude mouse subcutaneous xenograft tumor model of human diffuse large B-cell lymphoma TMD-8 cells; format: in vivo, BALB/c nude mice
Procedure: The antitumor effect of the test compound was evaluated using a BALB/c nude mouse subcutaneous xenograft tumor model of human diffuse large B-cell lymphoma TMD-8 cells.
• 1. Experimental animals: BALB/c nude mice, female, 6 to 8 weeks old. Vital River Laboratory Animal Technology Co., Ltd. • 2. Cell line: Human diffuse large B-cell lymphoma TMD-8 cells (purchased from Shanghai Huzhen Industrial Co., Ltd.).
Cell culture: Routine cell culture was conducted in RPMI-1640 medium containing 10% fetal bovine serum under 5% CO2 at 37° C. Cells were passaged based on cell growth conditions at a passage ratio of 1:3 to 1:4.
Tumor cell inoculation and grouping: TMD-8 cells in the logarithmic growth phase were harvested, counted, and resuspended in a mixture of 50% serum-free RPMI-1640 medium and 50% Matrigel. The cell concentration was adjusted to 4.0×10^7 cells/mL. […]
The pharmacodynamic experiment was conducted with a 7-day administration cycle, where the test compound was administered once daily intragastrically at 24-hour intervals, for a total of three cycles. During the experiment, animal body weight and tumor size were measured twice a week, and clinical symptoms were observed and recorded daily.
The test compound was administered at doses of 10 mg/kg, 30 mg/kg, and 100 mg/kg, with the vehicle being 10% DMSO/10% Solutol HS15/80% water. Tumor volume (TV) was calculated using the formula: ½×a×b^2, where a and b represent the measured length and width of the tumor, respectively. […] The relative tumor proliferation rate (T/C, %) was calculated using the formula: T/C %=TRTV/CRTV[…] (TRTV: mean RTV of the treatment group; CRTV: mean RTV of the negative control group). The relative tumor volume (RTV) was calculated based on the tumor measurement results, with the formula RTV=Vt/V0, where V0 is the tumor volume measured at the time of grouping administration (i.e., Day 1), and Vt is the tumor volume at a certain measurement time. […]
The experimental data were calculated and subjected to relevant statistical processing using Microsoft Office Excel 2007 software. […]

| Compound | bioavailability ([1]; 15 mg/kg) [%] | Relative Tumor Volume (Day 22) ([2]; 10 mg/kg intragastric once daily) | Relative Tumor Volume (Day 22) ([2]; 30 mg/kg intragastric once daily) | Relative Tumor Volume (Day 22) ([2]; 100 mg/kg intragastric once daily) | bioavailability ([1]; 5 mg/kg) [%] |
| --- | --- | --- | --- | --- | --- |
| O=C1CCC(c2noc3ccc4c(NC(=O)CN5CCN(C[C@H]6CC[C@H](n7cc(NC(=O)c8coc(-c9ccnc(NCC%10CC%10)c9)n8)c(C(F)F)n7)CC6)CC5)cccc4c23)C(=O)N1 (some centres unmarked) [Hydrochloride of Compound of Formula (I)] | 60.8 | 4.41 | 2.60 | 1.78 |  |
| O=C1CCC(c2noc3ccc4c(NC(=O)CN5CCN(C[C@H]6CC[C@H](n7cc(NC(=O)c8coc(-c9ccnc(NCC%10CC%10)c9)n8)c(C(F)F)n7)CC6)CC5)cccc4c23)C(=O)N1 (some centres unmarked) |  |  |  |  | 62 |
